The test has as its system Mycosphaerella graminicola; anamorph: Septoria tritici; Bayer code SEPTTR. As to the kind of experiment: Fungicidal activity: leaf blotch of wheat, greenhouse wheat plants (variety Yuma), percent disease control. It is filed as in vivo. Conditions: Zymoseptoria tritici. The method, then: Evaluation of Fungicidal Activity: Leaf Blotch of Wheat (Mycosphaerella graminicola; anamorph: Septoria tritici; Bayer code SEPTTR)
Wheat plants (variety Yuma) were grown from seed in a greenhouse in 50% mineral soil/50% soil-less Metro mix until the first leaf was fully emerged, with 7-10 seedlings per pot. These plants were inoculated with an aqueous spore suspension of Septoria tritici either prior to or after fungicide treatments. After inoculation the plants were kept in 100% relative humidity (one day in a dark dew chamber followed by two to three days in a lighted dew chamber) to permit spores to germinate and infect the leaf. The plants were then transferred to a greenhouse for disease to develop.
The effectiveness of the test compounds in controlling disease was determined by assessing the severity of disease on treated plants, then converting the severity to percent control based on the level of disease on untreated, inoculated plants. • In each case of Table II the rating scale is as follows: […]

Read-outs that look alike come from different tables or passages of the source.

Regarding `O=C(Nc1nc(=O)n(CC2CCCO2)cc1F)c1cccs1` (centres unmarked) [Compound 94, N-(5-fluoro-2-oxo-1-((tetrahydrofuran-2-yl)methyl)-1,2-dihydropyrimidin-4-yl)thiophene-2-carboxamide], the pest or weed control at 100 ppm (24 h, read-out: SEPTTR 100 PPM 1DP (% Disease Control rating)) fell in the range of 0 to 25% and the pest or weed control at 100 ppm (72 h, read-out: SEPTTR 100 PPM 3DC (% Disease Control rating)) lay in the range of 0 to 25%.

The values above are taken from US8916579B2, “5-fluoropyrimidinone derivatives” (Dow AgroSciences, LLC., priority 2009, dated 2014).
